One assay addresses DOP (Opiate δ) (Cavia porcellus, UniProt A0A286XTF2). The assay can be described thus: Receptor characterization panel: DOP binding. Also noted: species or system guinea pig.
Another assay has as its target NE uptake (Rattus norvegicus, UniProt Q63380). The assay can be described thus: Receptor characterization panel: NE uptake site binding.
A further assay deals with 5-HT1A (Rattus norvegicus, UniProt P19327). The assay is described as follows: Receptor characterization panel: 5-HT1A binding. To be noted: read-out: Reference agents (IC50); [3H]8-OH-DPAT; hippocampus/rat.
The target in the next assay is 5-HT3 (Rattus norvegicus, UniProt P35563). The assay is described as follows: Receptor characterization panel: 5-HT3 binding. The following applies: read-out: Reference agents (IC50); [3H]BRL 43,694; hippocampus-cortex/rat.
For the next assay, the target named is NMDA/channel site (Rattus norvegicus, UniProt P35439). The assay can be described thus: Receptor characterization panel: NMDA channel site binding.

Amino acid sequences for entries named in this document (tags omitted). A change or cut given only in a name is not applied to a line headed by its entry. Residues count along the entry.
UniProt A0A286XTF2, 1-366: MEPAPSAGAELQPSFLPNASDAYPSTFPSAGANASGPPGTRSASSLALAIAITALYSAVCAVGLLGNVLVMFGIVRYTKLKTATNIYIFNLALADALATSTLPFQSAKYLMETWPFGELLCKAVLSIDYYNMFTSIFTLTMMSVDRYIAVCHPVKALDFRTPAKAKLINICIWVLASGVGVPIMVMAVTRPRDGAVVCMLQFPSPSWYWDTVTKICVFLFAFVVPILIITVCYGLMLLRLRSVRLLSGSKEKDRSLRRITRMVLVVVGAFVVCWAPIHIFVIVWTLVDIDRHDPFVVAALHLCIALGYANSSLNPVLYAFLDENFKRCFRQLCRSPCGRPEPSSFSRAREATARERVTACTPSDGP
UniProt Q63380, 1-617: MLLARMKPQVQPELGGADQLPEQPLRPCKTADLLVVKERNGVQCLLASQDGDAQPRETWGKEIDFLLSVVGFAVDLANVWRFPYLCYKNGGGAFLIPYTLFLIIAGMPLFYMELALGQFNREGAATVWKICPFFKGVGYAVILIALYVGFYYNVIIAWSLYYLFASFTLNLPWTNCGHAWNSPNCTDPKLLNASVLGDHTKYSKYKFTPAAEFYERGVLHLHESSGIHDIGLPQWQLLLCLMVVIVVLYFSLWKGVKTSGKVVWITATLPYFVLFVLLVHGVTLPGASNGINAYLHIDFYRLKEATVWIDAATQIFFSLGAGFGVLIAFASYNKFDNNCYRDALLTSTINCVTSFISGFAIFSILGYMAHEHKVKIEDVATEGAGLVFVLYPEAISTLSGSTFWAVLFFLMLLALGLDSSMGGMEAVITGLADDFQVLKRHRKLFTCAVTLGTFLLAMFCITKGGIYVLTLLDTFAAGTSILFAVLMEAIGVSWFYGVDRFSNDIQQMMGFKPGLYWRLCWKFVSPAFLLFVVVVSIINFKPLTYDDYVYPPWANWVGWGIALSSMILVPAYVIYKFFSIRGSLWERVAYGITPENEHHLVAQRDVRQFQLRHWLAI
UniProt P19327, whole entry: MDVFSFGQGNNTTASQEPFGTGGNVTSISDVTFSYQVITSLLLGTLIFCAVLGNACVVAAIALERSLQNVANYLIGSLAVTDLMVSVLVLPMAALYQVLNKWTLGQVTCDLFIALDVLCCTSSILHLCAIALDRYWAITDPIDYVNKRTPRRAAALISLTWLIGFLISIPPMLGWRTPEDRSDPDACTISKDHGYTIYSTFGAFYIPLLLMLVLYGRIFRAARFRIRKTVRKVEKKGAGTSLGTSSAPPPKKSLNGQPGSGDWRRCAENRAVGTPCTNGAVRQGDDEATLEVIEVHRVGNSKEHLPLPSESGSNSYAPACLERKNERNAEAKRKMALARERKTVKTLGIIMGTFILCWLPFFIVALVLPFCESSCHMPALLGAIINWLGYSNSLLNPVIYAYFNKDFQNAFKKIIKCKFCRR
UniProt P35563, 24-483: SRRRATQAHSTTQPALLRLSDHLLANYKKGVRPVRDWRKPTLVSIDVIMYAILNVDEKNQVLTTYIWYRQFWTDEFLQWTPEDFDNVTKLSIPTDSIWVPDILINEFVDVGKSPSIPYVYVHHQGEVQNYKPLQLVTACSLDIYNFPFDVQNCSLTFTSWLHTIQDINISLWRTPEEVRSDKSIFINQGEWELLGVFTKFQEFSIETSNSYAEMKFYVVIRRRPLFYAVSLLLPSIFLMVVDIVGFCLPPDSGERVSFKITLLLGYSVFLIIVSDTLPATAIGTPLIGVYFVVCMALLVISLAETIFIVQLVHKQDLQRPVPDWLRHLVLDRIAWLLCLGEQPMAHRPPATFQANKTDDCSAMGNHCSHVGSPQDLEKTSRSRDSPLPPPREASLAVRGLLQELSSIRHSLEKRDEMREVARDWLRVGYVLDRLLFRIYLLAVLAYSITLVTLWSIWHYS

On DOP (Opiate δ), `Oc1ccc2c3c1O[C@H]1c4[nH]c5ccccc5c4C[C@@]4(O)[C@@H](C2)N(CC2CC2)CC[C@]314` [Naltrindole] registered a half-inhibitory concentration (IC50) of 1.25 nM. As for `CNCCC(Oc1ccccc1OC)c1ccccc1` (centres unmarked) [Nisoxetine], on NE uptake, the concentration for half-maximal inhibition (IC50) was found to be 1.1 nM.

With `NCCc1c[nH]c2ccc(O)cc12` [5-HT, reference compound], the concentration for half-maximal inhibition (IC50) was determined as 11.4 nM at 5-HT1A and 328 nM at 5-HT3. `CC12CC3CC(C)(C1)CC(N)(C3)C2` [Memantine]: the half-inhibitory concentration (IC50) at NMDA/channel site was found to be 1300 nM.

A word on the IC50: it is the concentration needed to halve the response being measured.
